# Assay: Solubility in water / aqueous solutions of chlorhexidine and its salts
# Assay type: physicochemical
# Settings: salt of chlorhexidine base with the named acid or lactone
substance,measurement,value
chlorhexidine ascorbate,solubility in water of chlorhexidine salt,very soluble in water

# — US6500466B2, “Chlorhexidine formulations, new chlorhexidine salts, solutions containing these and their use” (Degussa AG, priority 1998, dated 2002)
